US20230241188A1 (priority 2020, published 2023)

What was measured:
[1] = target: SARS-CoV-2 (2019-nCoV) Spike S1+S2 ECD-His Recombinant Protein (Severe acute respiratory syndrome coronavirus 2, UniProt P0DTC2); assay type: biochemical
[2] = system: ACE-2 receptor
[3] = system: NRP-1 receptor

## CC(=O)N[C@@H](CS)C(=O)O [Acetylcysteine, acetylcysteine]
[1]
  spike protein band on SDS-PAGE gel: reduction in band thickness and intensity
[2]
  protein expression of ACE-2 receptor (western blot): do not
[3]
  protein expression of NRP-1 receptor (western blot): do not
